# Antibody variant affinities, Ab-14 heavy chain, assay B

From the AlphaSeq antibody data of Li et al. 2023 (doi:10.1038/s41467-023-39022-2), copy in the FLAb collection.

Binding partner: SARS-CoV-2 spike HR2 peptide, sequence PDVDLGDISGINAS.

Parent scFv Ab-14: VH joined to VL by a 15-residue (Gly4Ser)3 linker. Changes lie in the heavy chain CDRs alone.
VH: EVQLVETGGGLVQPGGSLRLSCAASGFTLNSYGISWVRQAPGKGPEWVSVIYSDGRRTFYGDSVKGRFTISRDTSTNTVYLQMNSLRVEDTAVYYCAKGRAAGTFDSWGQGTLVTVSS
VL: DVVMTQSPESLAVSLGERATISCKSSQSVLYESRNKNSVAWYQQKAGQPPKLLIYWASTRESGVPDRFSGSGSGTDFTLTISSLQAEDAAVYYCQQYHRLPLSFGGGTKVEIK

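The parent was found by panning a naive human phage display library on the peptide. These sequences belong to a second round, designed from the earlier measurements on random variants of the parent. Group labels follow the data file (Ctrl: baseline library sampled from a position-specific scoring matrix, with some repeated check sequences; GP: Gaussian process model; GPLM: also part of the Gaussian process libraries; HC: hill climbing; Gen: genetic algorithm; a sequence that several methods proposed may carry one label only). Affinity was read by AlphaSeq, a pooled yeast mating assay with surface-displayed partners. The frequency of each diploid, read from paired DNA barcodes, reflects how well the two displayed proteins bind. Scores were corrected for input abundance and mapped to Kd with protein pairs of known affinity run in the same pool. There are six technical replicates.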

Substitutions are numbered in sequence along the VH above, starting at 1 (not Kabat). Values are log10 of the apparent Kd in nM; lower means stronger binding. "ND" marks a missing value. The strain was present, yet no cells mated with the target were sequenced in that replicate, which points to weak or no binding.

| changes | group | log10 Kd, replicates | empty controls |
|---|---|---|---|
| Y60T A101Q G103D D106E | Ctrl | ND ND ND ND ND ND | 0 of 18 |
| F27L T28R G99R A102V | Ctrl | ND ND ND ND ND ND | 0 of 18 |
| S53A R100E T104S | Ctrl | 1.10 0.81 0.80 0.96 1.42 1.15 | 0 of 18 |
| T28P S31Q F59A | Ctrl | 0.05 0.13 0.34 0.04 0.02 0.54 | 1 of 18 (2.11) |
| I34L V64Y G99R D106R | Ctrl | ND ND ND ND ND ND | 0 of 18 |
| F27E S31D Y32H F59Q | Ctrl | ND ND ND ND ND ND | 0 of 18 |
| L29M S31K | Ctrl | ND ND ND ND ND ND | 0 of 18 |
| T28E N30L G61I A101N | Ctrl | 1.47 1.72 1.51 2.87 1.64 0.51 | 0 of 18 |
| S31E R56A G61A R100Q G103L | Ctrl | ND ND ND ND ND ND | 0 of 18 |
| T28S R100T | Ctrl+GPLM_Gen | 2.20 0.38 0.38 1.29 0.57 0.48; -0.19 0.31 0.37 -0.04 0.06 0.27 | 0 of 36 |
| G26T G61D | Ctrl | 2.57 3.07 ND 2.31 2.32 1.96 | 1 of 18 (3.61) |
| S31E S107D | Ctrl+GP_HC | 1.67 2.28 1.58 1.47 1.48 1.43; 1.61 1.72 1.72 1.19 1.06 1.53 | 1 of 36 (2.18) |
| T58A G61A G99A A102D | Ctrl | ND ND ND ND 1.17 ND | 0 of 18 |
| F27L K65R T104A | Ctrl | ND ND ND ND ND ND | 0 of 18 |
| G61Q R100K T104H S107L | Ctrl | ND ND ND ND ND ND | 1 of 18 (2.55) |
| G61E S63D A101E S107L | Ctrl | 1.82 1.49 1.00 1.49 1.56 1.37 | 0 of 18 |
| G61D A102L G103V | Ctrl | ND ND ND ND ND ND | 0 of 18 |
| G55T T58V G61S D106E | Ctrl | ND ND ND ND ND ND | 0 of 18 |
| N30D S53H G61A F105N | Ctrl | ND ND ND ND ND ND | 0 of 18 |
| L29I S53A G61S D106N | Ctrl | ND ND ND ND 0.90 ND | 0 of 18 |
| G26Q S31K G61S S63R | Ctrl | 1.55 ND ND ND ND ND | 0 of 18 |
| S31Q S63D K65R | Ctrl | ND 0.49 ND ND 2.13 ND | 0 of 18 |
| N30G S35H R56K G61S R100T S107T | Ctrl | 1.34 1.10 ND 0.89 0.95 0.96 | 1 of 18 (2.28) |
| A101P S107P | Ctrl | 1.11 1.49 0.87 1.59 1.55 1.03 | 0 of 18 |
| G61T R100Q | Ctrl+GPLM_Gen | 1.08 1.73 1.52 1.57 1.38 3.22; ND ND ND ND ND ND | 0 of 36 |
| R100E G103F | Ctrl | ND 2.64 ND 2.65 ND ND | 0 of 18 |
| R56F T58C F59G G61N R100Y | Ctrl | ND ND ND ND ND ND | 0 of 18 |
| T28D G61L | Ctrl | 0.85 0.64 0.66 0.50 0.31 0.90 | 1 of 18 (3.54) |
| R56M G61S A102G | Ctrl | 1.50 1.33 1.11 1.53 ND 1.49 | 1 of 18 (1.82) |
| N30D R56E D106W | Ctrl | ND ND ND ND ND ND | 0 of 18 |
| T28A G33P | Ctrl | ND ND ND ND ND ND | 0 of 18 |
| T28G S31D G61N S63D G99Q F105G D106F | Ctrl | ND ND ND ND ND ND | 0 of 18 |
| T28D R56E T58E K65V R100V | Ctrl | ND ND 2.35 1.14 1.71 2.70 | 1 of 18 (1.84) |
| G61A R100Q A101M S107M | Ctrl | 0.93 ND 1.55 1.25 ND 2.13 | 0 of 18 |
| S31E G61R G103K D106M | Ctrl | 2.20 1.73 2.15 1.52 2.74 2.89 | 1 of 18 (2.03) |
| S31Q D62N G103R | Ctrl | ND ND ND ND ND ND | 0 of 18 |
| F27D T28S I51D A102T S107A | Ctrl | ND ND ND ND ND ND | 0 of 18 |
| T28H S63D S107D | Ctrl | ND 2.22 ND ND ND ND | 1 of 18 (3.26) |
| S63Q A101N D106H | Ctrl | ND ND ND ND ND ND | 0 of 18 |
| T28P F59S R100E G103S | Ctrl | ND ND ND ND 1.54 ND | 1 of 18 (1.53) |
| T28D G61A R100T A101E | Ctrl | -0.04 0.49 0.69 -0.14 0.05 0.19 | 0 of 18 |
| S63K F105P | Ctrl | ND ND ND ND ND ND | 0 of 18 |

Again, the first 6 entries without any signal:

| changes | group | log10 Kd, replicates | empty controls |
|---|---|---|---|
| Y60T A101Q G103D D106E | Ctrl | ND ND ND ND ND ND | 0 of 18 |
| F27L T28R G99R A102V | Ctrl | ND ND ND ND ND ND | 0 of 18 |
| I34L V64Y G99R D106R | Ctrl | ND ND ND ND ND ND | 0 of 18 |
| F27E S31D Y32H F59Q | Ctrl | ND ND ND ND ND ND | 0 of 18 |
| L29M S31K | Ctrl | ND ND ND ND ND ND | 0 of 18 |
| S31E R56A G61A R100Q G103L | Ctrl | ND ND ND ND ND ND | 0 of 18 |

The parent sequence was in this pool as ten entries: three were never detected, three once, and four in most replicates, with averages from 0.34 to 2.37. A sequence measured in both rounds can read differently, since the two assays cover different ranges. Empty control strains, which show no peptide, gave a signal in 1% of pairings with all heavy chain designs; the median was 2.08 and 95% of these signals were weaker than 0.84. No background was subtracted. The control count says in how many pairings with the empty strains this scFv gave a signal, with their mean in brackets. Some sequences occur more than once in the pool; their replicates are listed entry by entry, parted by semicolons. The authors averaged sequences with at least three values out of six and counted those with two or fewer as poor binders.